In the assay the target is GII.10 Vietnam 026 VLPs (Norwalk virus (human norovirus GII.10), UniProt Q5F4T5). As to the kind of experiment: biochemical. To be noted: STD NMR at 277 K.

Structures are written as SMILES.

By Kd is commonly meant the free concentration of one partner at which half of the binding sites on the other are occupied at equilibrium, for simple one-to-one binding. Read a low Kd as a tighter complex.

Take `C[C@@H]1O[C@@H](O[C@@H]2[C@@H](O[C@H]3O[C@H](CO)[C@H](O)[C@H](O)[C@H]3O)[C@@H](O)[C@@H](CO)O[C@@H]2N=[N+]=[N-])[C@@H](O)[C@H](O)[C@@H]1O` [B-Tri 3, blood group B trisaccharide (azido group at the anomeric position)]: the Kd is, setting by setting: (PBS pH* 7.20, absence of GCDCA) 7.9 ± 0.7 mM; (PBS pH* 7.20, with saturating amounts of GCDCA (1 mM)) 9 ± 1 mM.

The values above are taken from article PMC8001558 (Viruses, 2021).
